The text below walks through data of patent publication US4851209A, “Diagnostic procedures using radio labeled sucralfate and derivatives or precursors thereof” (The Regents of the University of California, priority 1985, dated 1989).

The nature of the data set: gastric clearance of orally given labeled material in supine human volunteers (gamma camera). Type of data set: in vivo. The method, then:
We have tested Tc-99m labeled potassium sucrose sulfate on two supine human volunteers. The tagged material was stable in a solution comprising one gram per 10 cc of normal saline. The solution was given orally as a 10 cc dose. […] The T1/2 of the labeled potassium sucrose sulfate is r22 minutes from the stomach vs. r90 minutes for radiolabeled sucralfate. The value of Tc-99m potassium sucrose sulfate vs. Tc99m sucralfate is that the residual of the former is less than that of Tc-99m sucralfate. […] A good analogy would be the stars at night vs. the stars during the day. The stars are there in both instances. However, the sky is so bright during the day that star-light is simply lost in the background. […] Radiolabeled potassium sucrose sulfate offers a substantial improvement as a radio-pharmaceutical over the use of radiolabeled sucralfate. The potassium salt used for imaging ulcers in Example III can be replaced by other cations compatible in the human body including alkali metal and alkaline earth metal cations such as sodium and calcium.

On to “potassium sucrose sulfate [Tc-99m labeled potassium sucrose sulfate]”, for which the “labeled material left in the stomach at 90 minutes (in words)” value (oral, at 90 minutes) was “only a minimum”. The imaging background result (vs radiolabeled sucralfate) is given as “background is reduced”.
